Molecular target: protein ABL1 (Homo sapiens, UniProt P00519)
Test: Activity (binding force, IC50) of compounds against protein ABL1
Settings: read-out: binding force, IC50 (50% inhibitory concentration); protein ABL1 (kinase)

Chains of the proteins cited; added tags and fusions are not shown.
UniProt P00519, whole entry: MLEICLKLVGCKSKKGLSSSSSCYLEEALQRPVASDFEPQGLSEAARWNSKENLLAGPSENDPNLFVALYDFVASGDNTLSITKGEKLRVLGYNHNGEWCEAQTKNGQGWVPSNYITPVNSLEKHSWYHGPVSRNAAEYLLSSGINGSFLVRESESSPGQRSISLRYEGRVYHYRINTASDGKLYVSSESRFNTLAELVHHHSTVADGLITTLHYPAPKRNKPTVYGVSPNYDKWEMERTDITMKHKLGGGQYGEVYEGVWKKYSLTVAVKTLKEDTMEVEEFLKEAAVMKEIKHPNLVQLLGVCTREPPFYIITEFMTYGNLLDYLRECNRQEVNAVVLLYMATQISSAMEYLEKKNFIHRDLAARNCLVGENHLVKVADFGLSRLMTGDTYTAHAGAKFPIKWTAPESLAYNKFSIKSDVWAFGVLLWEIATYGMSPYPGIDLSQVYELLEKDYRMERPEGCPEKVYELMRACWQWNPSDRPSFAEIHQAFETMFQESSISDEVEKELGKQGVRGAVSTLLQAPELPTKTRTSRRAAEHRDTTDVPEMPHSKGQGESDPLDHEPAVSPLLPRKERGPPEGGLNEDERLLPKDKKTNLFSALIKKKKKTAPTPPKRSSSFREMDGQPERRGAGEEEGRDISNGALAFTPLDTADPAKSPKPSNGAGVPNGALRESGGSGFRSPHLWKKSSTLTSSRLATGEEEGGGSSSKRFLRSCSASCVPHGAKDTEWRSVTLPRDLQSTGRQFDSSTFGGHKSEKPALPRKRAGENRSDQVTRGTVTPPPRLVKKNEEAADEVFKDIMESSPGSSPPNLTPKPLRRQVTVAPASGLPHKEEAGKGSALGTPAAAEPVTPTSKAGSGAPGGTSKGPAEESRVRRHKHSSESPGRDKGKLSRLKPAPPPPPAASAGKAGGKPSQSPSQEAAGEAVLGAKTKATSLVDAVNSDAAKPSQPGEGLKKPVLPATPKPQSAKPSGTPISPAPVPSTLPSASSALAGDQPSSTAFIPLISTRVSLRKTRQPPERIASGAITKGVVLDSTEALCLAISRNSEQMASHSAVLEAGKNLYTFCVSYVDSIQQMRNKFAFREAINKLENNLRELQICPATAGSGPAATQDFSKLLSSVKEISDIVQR

IC50: 1000 nM
Structure (SMILES): COc1ccccc1Oc1ccc2[nH]nc(-c3nc4ccc(N5CCC(N6CCCCC6)CC5)cc4[nH]3)c2c1

Reference: patent publication US12249406B2
